Measurements from patent US12344646B2, “Antibody-TNF α fusion protein and its preparation and applications” (priority 2018, dated 2025).

Tests used:
[1] = tested on: Her-2 positive human gastric cancer cells NCI-N87; assay: Cytotoxicity of Her-2 antibody-TNFα fusion protein on NCI-N87 cells; format: cell-based; details: all concentrations in test; data not shown
Experimental: FIG. 7A: the NCI-N87 cells were incubated with the antibody-TNFα fusion protein at different concentrations for 1 day; and cell survival was detected using a CCK-8 kit.
The day before experiment, the cells ([…]) in growth medium (150 μl) were added onto a 96-well plate. […] Cell viability was detected using MTT assay and cell viability using CCK-8.

[2] = tested on: B16/Her-2 tumor; assay: In vivo anti-tumor activity on B16/Her-2 melanoma in mice; design: species or system mouse; details: 3 mg/kg i.v., twice a week for two weeks, C57/B6 mice

Trastuzumab
effect on survival of NCI-N87 cells [1]: did not substantially impact survival
inhibition rate of B16/Her-2 tumor growth [2]: 16%
